Protein sequences, listed by entry. Tags and fused reporters are not part of them. Lines headed by an entry give the natural chain unless they say otherwise; changes in a name come on top.
UniProt P21817: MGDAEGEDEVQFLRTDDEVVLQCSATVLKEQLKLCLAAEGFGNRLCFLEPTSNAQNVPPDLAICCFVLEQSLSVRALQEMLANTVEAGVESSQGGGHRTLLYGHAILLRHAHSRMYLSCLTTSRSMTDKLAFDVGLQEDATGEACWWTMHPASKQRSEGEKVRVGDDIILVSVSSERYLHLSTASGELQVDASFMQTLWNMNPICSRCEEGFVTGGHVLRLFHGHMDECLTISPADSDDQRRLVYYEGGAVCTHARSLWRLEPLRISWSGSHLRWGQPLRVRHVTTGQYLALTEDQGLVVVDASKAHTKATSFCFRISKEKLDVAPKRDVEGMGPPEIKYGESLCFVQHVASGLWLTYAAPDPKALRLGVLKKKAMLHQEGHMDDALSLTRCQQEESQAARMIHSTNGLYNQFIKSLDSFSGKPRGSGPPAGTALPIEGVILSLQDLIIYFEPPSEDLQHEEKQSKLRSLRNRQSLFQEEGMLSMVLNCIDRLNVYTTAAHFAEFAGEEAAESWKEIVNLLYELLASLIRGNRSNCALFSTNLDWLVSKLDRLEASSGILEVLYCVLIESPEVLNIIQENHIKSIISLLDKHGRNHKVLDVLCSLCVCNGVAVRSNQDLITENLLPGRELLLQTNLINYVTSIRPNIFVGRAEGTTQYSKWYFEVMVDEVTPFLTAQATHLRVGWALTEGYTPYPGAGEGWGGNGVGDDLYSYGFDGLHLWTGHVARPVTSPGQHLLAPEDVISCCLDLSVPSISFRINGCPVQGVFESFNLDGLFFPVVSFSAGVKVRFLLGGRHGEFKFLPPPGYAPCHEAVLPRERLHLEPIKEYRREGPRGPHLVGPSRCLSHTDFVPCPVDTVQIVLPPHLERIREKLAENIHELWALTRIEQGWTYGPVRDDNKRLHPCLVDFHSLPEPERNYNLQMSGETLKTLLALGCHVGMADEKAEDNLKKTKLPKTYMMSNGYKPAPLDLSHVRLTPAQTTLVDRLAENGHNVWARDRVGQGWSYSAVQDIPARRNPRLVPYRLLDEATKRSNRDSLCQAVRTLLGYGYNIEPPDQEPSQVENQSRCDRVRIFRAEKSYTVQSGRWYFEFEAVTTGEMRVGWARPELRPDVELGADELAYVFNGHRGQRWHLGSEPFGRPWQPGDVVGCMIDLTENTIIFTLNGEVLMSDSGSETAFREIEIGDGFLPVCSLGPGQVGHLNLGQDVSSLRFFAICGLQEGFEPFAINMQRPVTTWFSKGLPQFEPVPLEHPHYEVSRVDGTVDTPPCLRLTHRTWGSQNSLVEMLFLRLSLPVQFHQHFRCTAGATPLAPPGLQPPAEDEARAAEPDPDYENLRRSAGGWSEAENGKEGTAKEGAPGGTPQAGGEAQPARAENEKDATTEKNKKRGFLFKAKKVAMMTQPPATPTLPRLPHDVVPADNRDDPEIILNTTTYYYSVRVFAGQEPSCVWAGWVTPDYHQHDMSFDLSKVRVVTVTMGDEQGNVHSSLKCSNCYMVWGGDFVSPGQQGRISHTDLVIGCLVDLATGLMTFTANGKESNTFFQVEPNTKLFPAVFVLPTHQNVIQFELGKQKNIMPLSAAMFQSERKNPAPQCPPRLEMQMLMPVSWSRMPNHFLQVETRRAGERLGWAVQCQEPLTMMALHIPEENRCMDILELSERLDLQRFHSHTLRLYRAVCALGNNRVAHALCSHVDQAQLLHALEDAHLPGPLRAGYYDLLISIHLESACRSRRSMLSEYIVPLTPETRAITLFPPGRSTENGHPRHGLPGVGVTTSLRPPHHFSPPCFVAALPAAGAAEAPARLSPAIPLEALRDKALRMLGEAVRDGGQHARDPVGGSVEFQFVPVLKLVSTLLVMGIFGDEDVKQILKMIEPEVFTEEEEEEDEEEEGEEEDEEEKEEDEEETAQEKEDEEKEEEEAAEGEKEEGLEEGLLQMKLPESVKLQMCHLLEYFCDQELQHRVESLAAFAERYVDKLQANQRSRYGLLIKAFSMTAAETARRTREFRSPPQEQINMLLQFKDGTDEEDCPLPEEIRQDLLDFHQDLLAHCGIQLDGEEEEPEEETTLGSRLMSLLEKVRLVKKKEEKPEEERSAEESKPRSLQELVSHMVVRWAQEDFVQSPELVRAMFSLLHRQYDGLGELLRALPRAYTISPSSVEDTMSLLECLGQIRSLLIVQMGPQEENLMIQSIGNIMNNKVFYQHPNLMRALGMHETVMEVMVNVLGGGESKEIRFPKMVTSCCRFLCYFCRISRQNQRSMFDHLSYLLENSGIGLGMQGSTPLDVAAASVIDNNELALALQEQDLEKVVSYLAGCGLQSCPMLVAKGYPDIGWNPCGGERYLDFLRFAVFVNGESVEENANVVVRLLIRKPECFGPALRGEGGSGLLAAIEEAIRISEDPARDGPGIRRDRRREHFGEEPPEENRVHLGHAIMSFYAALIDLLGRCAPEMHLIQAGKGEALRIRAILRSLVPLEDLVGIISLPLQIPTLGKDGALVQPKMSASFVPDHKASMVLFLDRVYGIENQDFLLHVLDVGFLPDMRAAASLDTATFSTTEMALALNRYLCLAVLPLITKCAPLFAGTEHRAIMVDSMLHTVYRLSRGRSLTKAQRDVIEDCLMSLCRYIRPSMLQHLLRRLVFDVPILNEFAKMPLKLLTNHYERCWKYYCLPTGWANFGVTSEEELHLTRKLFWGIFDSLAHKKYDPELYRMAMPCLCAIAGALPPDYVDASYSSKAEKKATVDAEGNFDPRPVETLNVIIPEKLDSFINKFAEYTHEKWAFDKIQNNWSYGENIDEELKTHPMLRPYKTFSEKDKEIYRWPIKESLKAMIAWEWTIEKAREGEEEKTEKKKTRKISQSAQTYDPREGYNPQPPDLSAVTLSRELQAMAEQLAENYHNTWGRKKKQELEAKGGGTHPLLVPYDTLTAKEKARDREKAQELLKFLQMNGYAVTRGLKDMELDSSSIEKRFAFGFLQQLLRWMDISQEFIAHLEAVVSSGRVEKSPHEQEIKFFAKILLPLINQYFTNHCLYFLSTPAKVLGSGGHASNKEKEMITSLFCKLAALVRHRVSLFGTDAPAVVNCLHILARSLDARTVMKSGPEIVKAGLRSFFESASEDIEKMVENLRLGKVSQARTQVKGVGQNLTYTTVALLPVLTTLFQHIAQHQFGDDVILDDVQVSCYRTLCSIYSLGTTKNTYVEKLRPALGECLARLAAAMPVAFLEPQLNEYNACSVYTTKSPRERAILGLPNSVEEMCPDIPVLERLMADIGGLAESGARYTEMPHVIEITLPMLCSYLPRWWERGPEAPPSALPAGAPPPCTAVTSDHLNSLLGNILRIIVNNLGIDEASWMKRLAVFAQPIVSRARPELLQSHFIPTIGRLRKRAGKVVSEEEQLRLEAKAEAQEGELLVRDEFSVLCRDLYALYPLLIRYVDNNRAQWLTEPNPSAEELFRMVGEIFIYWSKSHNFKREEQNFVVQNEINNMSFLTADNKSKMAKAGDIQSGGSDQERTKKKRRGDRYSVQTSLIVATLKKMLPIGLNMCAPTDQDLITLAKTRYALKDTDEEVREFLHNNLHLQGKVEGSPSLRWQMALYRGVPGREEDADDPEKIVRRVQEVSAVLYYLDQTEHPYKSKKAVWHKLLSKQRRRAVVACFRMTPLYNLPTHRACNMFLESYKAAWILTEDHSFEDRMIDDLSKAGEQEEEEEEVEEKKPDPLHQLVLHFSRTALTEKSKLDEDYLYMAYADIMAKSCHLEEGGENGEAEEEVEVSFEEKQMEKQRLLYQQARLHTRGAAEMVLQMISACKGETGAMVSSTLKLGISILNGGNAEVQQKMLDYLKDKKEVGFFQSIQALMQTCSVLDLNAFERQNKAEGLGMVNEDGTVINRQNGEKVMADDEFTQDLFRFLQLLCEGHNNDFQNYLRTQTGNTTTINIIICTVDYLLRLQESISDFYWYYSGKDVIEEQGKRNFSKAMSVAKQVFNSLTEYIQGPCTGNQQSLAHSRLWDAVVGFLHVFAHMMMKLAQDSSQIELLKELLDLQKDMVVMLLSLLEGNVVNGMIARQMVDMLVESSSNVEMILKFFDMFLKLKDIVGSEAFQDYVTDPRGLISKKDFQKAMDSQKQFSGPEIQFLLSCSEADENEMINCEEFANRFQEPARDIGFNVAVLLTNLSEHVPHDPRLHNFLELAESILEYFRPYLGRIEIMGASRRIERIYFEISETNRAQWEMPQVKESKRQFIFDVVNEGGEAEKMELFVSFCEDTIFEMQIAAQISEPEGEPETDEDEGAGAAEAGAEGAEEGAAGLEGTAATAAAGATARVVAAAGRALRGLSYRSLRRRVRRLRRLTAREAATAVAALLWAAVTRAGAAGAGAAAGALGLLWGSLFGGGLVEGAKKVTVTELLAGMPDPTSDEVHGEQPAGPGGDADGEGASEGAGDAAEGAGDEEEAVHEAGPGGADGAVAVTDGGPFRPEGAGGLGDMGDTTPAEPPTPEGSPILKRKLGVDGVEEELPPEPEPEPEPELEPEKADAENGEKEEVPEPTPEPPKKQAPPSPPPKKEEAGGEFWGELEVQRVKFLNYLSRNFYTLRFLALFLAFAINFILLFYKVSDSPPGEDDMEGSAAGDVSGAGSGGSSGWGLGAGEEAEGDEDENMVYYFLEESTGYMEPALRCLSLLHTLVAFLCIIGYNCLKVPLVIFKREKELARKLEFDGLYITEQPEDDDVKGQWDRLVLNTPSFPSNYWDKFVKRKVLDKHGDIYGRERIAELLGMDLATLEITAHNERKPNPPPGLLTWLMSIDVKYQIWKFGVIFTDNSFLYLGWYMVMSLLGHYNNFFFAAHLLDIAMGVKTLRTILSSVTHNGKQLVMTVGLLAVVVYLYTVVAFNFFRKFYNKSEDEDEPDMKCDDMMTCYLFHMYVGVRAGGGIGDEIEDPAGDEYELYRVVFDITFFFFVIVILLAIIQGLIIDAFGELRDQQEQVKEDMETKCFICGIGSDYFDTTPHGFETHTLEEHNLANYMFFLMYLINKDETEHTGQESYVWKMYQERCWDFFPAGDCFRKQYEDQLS

In ChEMBL document CHEMBL1158892, “Cationic reduction of bastadin-4 to bastadin-5. Preparation of 5-[2h]-bastadin-5 by site-specific isotopic labeling” (J Nat Prod, 2003):

Molecular target: Ryanodine receptor 1 (Homo sapiens, UniProt P21817)
Assay: Displacement of [3H]ryanodine from RyR1 calcium channel in sarcoplasmic reticulum assessed as calcium mobilization

| Structure (SMILES) | EC50 [µM] |
| --- | --- |
| O=C1NCCc2cc(Br)c(O)c(c2)Oc2ccc(cc2Br)[C@H](O)CNC(=O)/C(=N/O)Cc2cc(Br)c(O)c(c2)Oc2ccc(cc2Br)C/C1=N/O | 5.8 |
| O=C1NCCc2cc(Br)c(O)c(c2)Oc2c(Br)cc(cc2Br)CCNC(=O)/C(=N\O)Cc2cc(Br)c(O)c(c2)Oc2c(Br)cc(cc2Br)C/C1=N/O | 2.6 |
| O=C1N/C=C/c2ccc(c(Br)c2)Oc2cc(cc(Br)c2O)CCNC(=O)/C(=N/O)Cc2cc(Br)c(c(Br)c2)Oc2cc(cc(Br)c2O)C/C1=N\O | 14.7 |
